Experimental data taken from patent publication US10188613B2, “Exo-S-mecamylamine formulation and use in treatment” (UNIVERSITY OF SOUTH FLORIDA, priority 1998, dated 2019).
Counter-ions that a name gives are not always drawn.

The chains behind the UniProt entries cited, without tags or fusion partners. Residues count along the entry.
UniProt P30926, 22-498: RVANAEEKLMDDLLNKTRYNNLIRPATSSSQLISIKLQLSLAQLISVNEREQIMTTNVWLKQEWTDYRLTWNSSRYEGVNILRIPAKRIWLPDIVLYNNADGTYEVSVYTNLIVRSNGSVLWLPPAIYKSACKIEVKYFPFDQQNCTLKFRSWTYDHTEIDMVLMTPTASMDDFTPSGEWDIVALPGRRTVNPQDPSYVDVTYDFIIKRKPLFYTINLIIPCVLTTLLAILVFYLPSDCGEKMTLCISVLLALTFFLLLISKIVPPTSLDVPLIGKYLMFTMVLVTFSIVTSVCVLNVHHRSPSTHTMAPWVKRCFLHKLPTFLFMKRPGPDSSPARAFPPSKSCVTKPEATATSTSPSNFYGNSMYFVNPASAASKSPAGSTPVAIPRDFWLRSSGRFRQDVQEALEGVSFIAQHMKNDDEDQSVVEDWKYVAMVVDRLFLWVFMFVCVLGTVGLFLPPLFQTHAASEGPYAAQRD
UniProt P32297, 32-505: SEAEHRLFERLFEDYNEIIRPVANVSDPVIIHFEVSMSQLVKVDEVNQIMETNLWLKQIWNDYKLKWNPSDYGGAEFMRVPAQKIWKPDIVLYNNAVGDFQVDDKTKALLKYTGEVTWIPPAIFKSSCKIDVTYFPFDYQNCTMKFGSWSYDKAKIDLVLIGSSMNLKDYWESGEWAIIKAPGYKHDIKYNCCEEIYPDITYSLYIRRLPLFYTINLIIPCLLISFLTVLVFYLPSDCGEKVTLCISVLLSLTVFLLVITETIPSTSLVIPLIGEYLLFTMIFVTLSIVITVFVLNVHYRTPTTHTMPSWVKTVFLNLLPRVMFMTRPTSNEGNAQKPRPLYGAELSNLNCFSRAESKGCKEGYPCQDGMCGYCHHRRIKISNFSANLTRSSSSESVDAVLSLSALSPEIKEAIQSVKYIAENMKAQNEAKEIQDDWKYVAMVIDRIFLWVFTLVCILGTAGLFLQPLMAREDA

Target: T1, human α3β4 receptors (Homo sapiens, UniProt P30926+P32297)
T1 construct: expressed in transfected cells; host or cells: Xenopus laevis oocytes, cRNA injection
Assay: Two-electrode voltage clamp, Xenopus oocytes expressing α3β4 receptors (Example 4)
Assay type: cell-based
Details: control ACh 100 μM, -50 mV

CN[C@@]1(C)[C@@H]2CC[C@@H](C2)C1(C)C [exo-S-mecamylamine, exo-S-N,2,3,3-tetramethyl-bicycl-o-[2.1.1]heptan-2-amine hydrochloride]
IC50 rank among receptor subtypes: most potent at inhibiting α3β4 receptors
